Results reported in publication PMC6857076 (Pharmacology Research & Perspectives, 2019).
Like-named read-outs stand apart in the source and are kept apart here.

Protein sequences, listed by entry. Tags and fused reporters are not part of them. Residues count along the entry.
UniProt O60674, 849-1124 limits assumed: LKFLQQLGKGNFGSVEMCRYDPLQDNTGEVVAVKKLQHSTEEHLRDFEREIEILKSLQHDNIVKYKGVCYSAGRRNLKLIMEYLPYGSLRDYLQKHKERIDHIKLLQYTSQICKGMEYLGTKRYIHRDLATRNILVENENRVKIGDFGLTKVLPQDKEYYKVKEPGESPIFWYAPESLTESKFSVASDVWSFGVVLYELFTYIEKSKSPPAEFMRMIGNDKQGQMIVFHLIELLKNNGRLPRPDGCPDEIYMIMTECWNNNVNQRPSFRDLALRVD

Legend:
[1] = RA, randomized controlled trials, cited from earlier work
[2] = target: recombinant human kinase domain of JAK2 (Homo sapiens, UniProt O60674); assay: Enzymatic microfluidic kinase assay, JAK2
[3] = target: T1, recombinant human kinase domain of TYK2 (Homo sapiens, UniProt P29597); assay: Enzymatic microfluidic kinase assay, TYK2
T1 sequence (P29597 897-1176 limits assumed): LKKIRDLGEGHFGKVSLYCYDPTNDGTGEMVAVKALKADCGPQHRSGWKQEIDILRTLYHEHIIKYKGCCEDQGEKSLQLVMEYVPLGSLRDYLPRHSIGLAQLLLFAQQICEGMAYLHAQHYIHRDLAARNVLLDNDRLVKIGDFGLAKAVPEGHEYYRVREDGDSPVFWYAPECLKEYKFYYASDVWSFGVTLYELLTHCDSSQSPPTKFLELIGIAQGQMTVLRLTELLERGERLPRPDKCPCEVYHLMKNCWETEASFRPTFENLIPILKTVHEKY

| SMILES | serious infections incidence rate (95% CI) ([1]; baricitinib 2 mg QD) | serious infections incidence rate (95% CI) ([1]; baricitinib 4 mg QD) | IC50 [2] | IC50 [3] |
| --- | --- | --- | --- | --- |
| CCS(=O)(=O)N1CC(CC#N)(n2cc(-c3ncnc4[nH]ccc34)cn2)C1 [Baricitinib] | 4.8 (2.3, 9.7) patients with events per 100 p | 3.7 (2.3, 5.8) patients with events per 100 p | 2 nM |  |
| O=C(Nc1nc2cccc(-c3ccc(CN4CCS(=O)(=O)CC4)cc3)n2n1)C1CC1 [Filgotinib] |  |  |  | 397 nM |
